The values below come from patent US20190175744A1, “INSULIN-INCRETIN CONJUGATES” (Merck Sharp & Dohme Corp., priority 2016, published 2019).

The chains behind the UniProt entries cited, without tags or fusion partners. Residues count along the entry.
UniProt P43220, 24-463: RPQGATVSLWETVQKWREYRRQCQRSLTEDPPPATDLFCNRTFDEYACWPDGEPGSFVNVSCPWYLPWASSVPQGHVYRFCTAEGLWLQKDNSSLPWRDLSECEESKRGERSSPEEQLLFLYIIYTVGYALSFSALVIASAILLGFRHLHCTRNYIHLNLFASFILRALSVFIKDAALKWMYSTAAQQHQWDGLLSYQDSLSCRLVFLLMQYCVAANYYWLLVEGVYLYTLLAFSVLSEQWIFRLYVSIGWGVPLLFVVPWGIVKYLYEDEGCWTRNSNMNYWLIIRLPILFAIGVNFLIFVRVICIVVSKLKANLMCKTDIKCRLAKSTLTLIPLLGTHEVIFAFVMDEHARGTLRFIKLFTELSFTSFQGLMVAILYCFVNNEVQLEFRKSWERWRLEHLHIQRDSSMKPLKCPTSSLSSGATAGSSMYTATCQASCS
UniProt P47871, 26-477: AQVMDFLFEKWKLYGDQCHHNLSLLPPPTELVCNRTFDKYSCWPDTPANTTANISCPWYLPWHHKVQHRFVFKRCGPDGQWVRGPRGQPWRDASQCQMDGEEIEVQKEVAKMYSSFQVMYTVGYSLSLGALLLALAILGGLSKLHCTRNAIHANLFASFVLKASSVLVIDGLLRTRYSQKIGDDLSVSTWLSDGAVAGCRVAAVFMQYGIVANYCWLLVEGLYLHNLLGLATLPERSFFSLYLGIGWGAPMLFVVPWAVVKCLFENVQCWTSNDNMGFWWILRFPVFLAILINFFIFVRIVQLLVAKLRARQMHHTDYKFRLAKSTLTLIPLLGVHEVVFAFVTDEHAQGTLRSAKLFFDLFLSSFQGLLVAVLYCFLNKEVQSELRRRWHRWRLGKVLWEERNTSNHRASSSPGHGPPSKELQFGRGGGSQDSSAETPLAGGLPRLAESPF

One assay addresses human GLP1R (Homo sapiens, UniProt P43220). Briefly: cAMP activity assay, cells expressing human GLP1R. The class given is cell-based.
Another assay addresses T1, human GCGR (Homo sapiens, UniProt P47871).
T1 construct: expressed in transfected cells; grown with Blasticidin and Hygromycin
The assay is described as follows: cAMP activity assay, cells expressing human GCGR.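 For all read-outs here: cAMP production read by luminescence after one hour of peptide exposure at room temperature, EC50 from logistic curve fit, native glucagon and GLP-1 as control peptides.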 The class given is cell-based. Conditions: for GCGR/GLP1R ratio: Table 5, ratio of hGCGR EC50 to hGLP1R EC50.

Like-named read-outs stand apart in the source and are kept apart here.

For `CCCCCCCCCCCCCCCC(=O)N[C@@H](CCC(=O)N[C@@H](CCC(=O)NCCCC[C@H](NC(=O)[C@H](CC(=O)O)NC(=O)[C@H](CO)NC(=O)[C@@H](NC(=O)[C@H](Cc1ccccc1)NC(=O)[C@@H](NC(=O)CNC(=O)[C@H](CCC(N)=O)NC(=O)C(C)(C)NC(=O)[C@@H](N)Cc1c[nH]cn1)[C@@H](C)O)[C@@H](C)O)C(=O)N[C@@H](CO)C(=O)N[C@@H](CCCCN)C(=O)N[C@@H](Cc1ccc(O)cc1)C(=O)N[C@@H](CC(C)C)C(=O)N[C@@H](CC(=O)O)C(=O)NC(C)(C)C(=O)N[C@@H](CCCNC(=N)N)C(=O)N[C@@H](C)C(=O)N[C@@H](C)C(=O)N[C@@H](CCC(N)=O)C(=O)N[C@@H](CC(=O)O)C(=O)N[C@@H](Cc1ccccc1)C(=O)N[C@H](C(=O)N[C@@H](CCC(N)=O)C(=O)N[C@@H](Cc1c[nH]c2ccccc12)C(=O)N[C@@H](CC(C)C)C(=O)N[C@@H](CC(C)C)C(=O)N[C@@H](CC(=O)O)C(=O)N[C@H](C(=O)N[C@@H](CCCCN)C(=O)N[C@@H](CCCCNC(=O)COCCOCCNC(=O)COCCOCCNC(=O)CCCCN=[N+]=[N-])C(N)=O)[C@@H](C)O)C(C)C)C(=O)O)C(=O)O` [PEP21], the EC50 at human GLP1R stood at 0.07 nM; at human GCGR it was 0.08 nM. Also, the GCGR/GLP1R ratio on human GCGR turned out to be 1.1.

For `CC(C)C[C@H](NC(=O)[C@H](Cc1ccc(O)cc1)NC(=O)[C@H](CCCCN)NC(=O)[C@H](CO)NC(=O)[C@H](Cc1ccc(O)cc1)NC(=O)[C@H](CC(=O)O)NC(=O)[C@H](CO)NC(=O)[C@@H](NC(=O)[C@H](Cc1ccccc1)NC(=O)[C@@H](NC(=O)CNC(=O)[C@H](CCC(N)=O)NC(=O)[C@@H](CO)NC(=O)[C@@H](N)Cc1c[nH]cn1)[C@@H](C)O)[C@@H](C)O)C(=O)N[C@@H](CC(=O)O)C(=O)N[C@@H](CCC(=O)O)C(=O)N[C@@H](CCCNC(=N)N)C(=O)N[C@@H](C)C(=O)N[C@@H](C)C(=O)N[C@@H](CCC(N)=O)C(=O)N[C@@H](CC(=O)O)C(=O)N[C@@H](Cc1ccccc1)C(=O)N[C@H](C(=O)N[C@@H](CCCCNC(=O)COCCOCCNC(=O)COCCOCCNC(=O)CC[C@H](NC(=O)CCCCCCCCCCCCCCCN=[N+]=[N-])C(=O)O)C(=O)N[C@@H](Cc1c[nH]c2ccccc12)C(=O)N[C@@H](CC(C)C)C(=O)N[C@@H](CC(C)C)C(=O)N[C@@H](CC(=O)O)C(=O)N[C@H](C(N)=O)[C@@H](C)O)C(C)C` [PEP25], on human GLP1R, it took 0.05 nM to reach a half-maximal effect (EC50). Further, on human GCGR, the concentration giving a half-maximal response (EC50) is 0.04 nM and the GCGR/GLP1R ratio was found to be 0.8.

`CCCCCCCCCCCCCCCC(=O)N[C@@H](CCC(=O)N[C@@H](CCC(=O)NCCCC[C@H](NC(=O)[C@H](CC(=O)O)NC(=O)[C@H](CO)NC(=O)[C@@H](NC(=O)[C@H](Cc1ccccc1)NC(=O)[C@@H](NC(=O)CNC(=O)[C@H](CCC(N)=O)NC(=O)[C@@H](CO)NC(=O)[C@@H](N)Cc1c[nH]cn1)[C@@H](C)O)[C@@H](C)O)C(=O)N[C@@H](CO)C(=O)N[C@@H](CCCCN)C(=O)N[C@@H](Cc1ccc(O)cc1)C(=O)N[C@@H](CC(C)C)C(=O)N[C@@H](CC(=O)O)C(=O)N[C@@H](CCC(=O)O)C(=O)N[C@@H](CCCNC(=N)N)C(=O)N[C@@H](C)C(=O)N[C@@H](C)C(=O)N[C@@H](CCC(N)=O)C(=O)N[C@@H](CC(=O)O)C(=O)N[C@@H](Cc1ccccc1)C(=O)N[C@H](C(=O)N[C@@H](CCCCN=[N+]=[N-])C(=O)N[C@@H](Cc1c[nH]c2ccccc12)C(=O)N[C@@H](CC(C)C)C(=O)N[C@@H](CC(C)C)C(=O)N[C@@H](CC(=O)O)C(=O)N[C@H](C(N)=O)[C@@H](C)O)C(C)C)C(=O)O)C(=O)O` [PEP74]: the 50% effective concentration (EC50) at human GLP1R and on human GLP1R (read-out: Incretin Receptor Assay (cAMP) EC50 GLP1R (Human)) was 0.05 nM in each case.

For orientation: EC50 means the concentration at which the effect is half-maximal.
